According to paper PMC5356311, “Experimental recreation of the evolution of lignin-degrading enzymes from the Jurassic to date” (Biotechnology for Biofuels, 2017):

System: CaPo
Conditions: read-out: CaPo; 0.4 mM H2O2, 0.1 M tartrate, pH 3.0, 25 °C; low efficiency site (heme channel)

Km: 3.17 ± 0.27 mM
SMILES: CCn1c(=NN=c2sc3cc(S(=O)(=O)O)ccc3n2CC)sc2cc(S(=O)(=O)O)ccc21 [ABTS]
